A selection: hits, their analogues and other compounds. The true share with any hit is near 1.1%.
p53 reactivation: mutant p53 re-activation in reporter cells; Potency, µM (titrated, usually from 92.2 µM), for inactives: top-dose activity change, positive = activation, actives largely listed as activators; H1299 p53-A138V BP100-luciferase reporter, luminescence, 24 h; actives 0.063% (n = 320,000); further: potency means the concentration at half of the fitted maximal effect; % of control where 0% means no effect; nearly all actives have a fitted effect of over 45% in size
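H1299 (p53-null), stable ts p53-A138V + BP100-Luc; 1000 cells/well, Opti-MEM/10% FBS; cpd 4 pt, 1:5; 24 h, 37 deg C, 5% CO2; detection reagent 10 min RT; luminescence.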
BRCA1 expr up: activators of BRCA1 expression. Potency, µM (series often up to 46.1 µM), inactives show at the top dose activation, actives largely listed as activators. AID 624202. MCF7-BRCA1-FFLuc reporter, luminescence, 48 h; response scale: scaled: vehicle 0%, 10 µM genistein 100%. actives 1.1% (n = 380,000); further: potency means the concentration at half of the fitted maximal effect; nearly all actives have a fitted effect of over 80% in size
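MCF7-BRCA1-FFLuc, 2000 cells/well; 2 h attach, 37 °C/5% CO2; compound 48 h; luciferase substrate 15 min; luminescence end-point. Norm. to genistein 10 microM max activation and DMSO; concentration-response curves fitted.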
miR-21 reporter: raises the signal of a miR-21 reporter. Potency, µM (highest dose often 38.3 µM), without a hit: top-dose reporter change, positive = more light. 340,000 tested, under 10 active. HeLa miR-21 FLuc reporter, luciferase, 48 h; active = well fitted rising curve with a large enough effect; inconclusive = small, poorly fitted or top-dose-only effect; inactive = no such curve, though single readings can be large or run the other way;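 further: % of control where 0% means no effect; miR-21 action dims this reporter so a rising signal means less miR-21 action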
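Compounds were titrated across several concentrations (up to approximately 40 uM) and incubated 48 hours with HeLa miR-21-FLuc reporter cells (miR-21 target sequence downstream of FLuc, endogenous miR-21). Readout was firefly luciferase luminescence after lytic detection reagent.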
Anesthetic bind: binds horse apoferritin like a general anesthetic; P02791; apoferritin/1-aminoanthracene competitive binding, fluorescence; Potency, µM (highest dose often 77.5 µM), for inactives: at the top dose activity change, negative = displacement, usual class: inhibitors; actives 0.074% (n = 350,000); AID 485281; further: potency means the concentration at half of the fitted maximal effect; on the % scale 0 is the no-effect control and ±100 the full control effect; nearly all actives have a fitted effect of over 20% in size
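Probe: 1-aminoanthracene (50% saturated, PBS). Protein: horse-spleen apoferritin, 10 uM. Incubation: 10 min, room temperature. Detection: 380 nm excitation, 535 nm emission. Analysis: normalized response, four-parameter Hill.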
Active calls of the source: *; ? = inconclusive; . = no result. The call rests on the fitted dose curve; in most records, active means well fitted curve in the direction sought with a large enough effect; inconclusive means small, poorly fitted or top-dose-only effect, or another doubt; inactive means no such curve, though single readings can be large; an effect the other way counts as inactive or inconclusive.

no. | molecule | p53 reactivation | BRCA1 expr up
1 | COC(=O)[C@@]1(Cc2ccc(OC)cc2)[C@H]2c3cc(C(=O)N4CCCC4)n(Cc4cc(F)cc5c4OCOC5)c3C[C@H]2CN1C(=O)c1ccccc1 | . | .
2 | CCC(=O)N(CC)c1nc(-c2ccc(OC)cc2)cs1 | ? | 11µM*
3 | CCC(=O)N(Cc1ccco1)c1nc(-c2ccc(OC)cc2)cs1 | 12% | 42%
4 | CCN(C(=O)c1ccccc1F)c1nc(-c2ccc(OC)cc2)cs1 | 9% | 7.9µM*
5 | COCCN(C(=O)c1ccccc1F)c1nc(-c2ccc(OC)cc2)cs1 | -2% | 5%
6 | Cc1nn(-c2nc3ccccc3s2)c(N)c1-c1ccccc1 | 22µM* | ?
7 | Cc1nn(-c2nc3ccccc3s2)c(N)c1-c1ccc(Cl)cc1 | ? | -55%
8 | COC(=O)c1ccccc1S(=O)(=O)Oc1ccc(-c2ccc(C(=O)O)cc2)cc1 | 1% | -6%
9 | O=C(O)c1ccc(-c2ccc(OS(=O)(=O)c3ccccc3F)cc2)cc1 | 10% | 13µM*
10 | COc1ccc(C2=NN(C(=O)CCC(=O)O)C(c3cccs3)C2)cc1 (stereo unspecified) | 1% | 4%
11 | COc1ccc(C2=NN3C(C2)c2ccccc2OC3c2cccs2)cc1 (stereo unspecified) | 14% | 10µM*
12 | CN(C)c1ccc(/C=C/c2nnnn2-c2ccccc2)cc1 | ? | 4µM*

no. | miR-21 reporter | Anesthetic bind
1 | . | -10%
2 | -60% | 7%
3 | -9% | -2%
4 | -51% | 6%
5 | -7% | -2%
6 | -42% | -9%
7 | -47% | 5%
8 | 3% | 2%
9 | -57% | 4%
10 | -13% | -1%
11 | -47% | ?
12 | -75% | 63%

The last 5 compounds of the part above lead into the next.
no. | molecule | p53 reactivation | BRCA1 expr up
8 | COC(=O)c1ccccc1S(=O)(=O)Oc1ccc(-c2ccc(C(=O)O)cc2)cc1 | 1% | -6%
9 | O=C(O)c1ccc(-c2ccc(OS(=O)(=O)c3ccccc3F)cc2)cc1 | 10% | 13µM*
10 | COc1ccc(C2=NN(C(=O)CCC(=O)O)C(c3cccs3)C2)cc1 (stereo unspecified) | 1% | 4%
11 | COc1ccc(C2=NN3C(C2)c2ccccc2OC3c2cccs2)cc1 (stereo unspecified) | 14% | 10µM*
12 | CN(C)c1ccc(/C=C/c2nnnn2-c2ccccc2)cc1 | ? | 4µM*
13 | CN(C)c1ccc(/C=C/c2ccccn2)cc1 | . | -41%
14 | O=C(CNC(=O)c1ccc(OC(F)F)cc1)Nc1cccc(S(=O)(=O)N2CCCC2)c1 | 1% | -6%
15 | N#CCC(=O)N/N=C/c1ccc(OS(=O)(=O)c2ccccc2)cc1 | 2% | 4%
16 | N#CCC(=O)N/N=C\c1ccccc1OC/C=C/c1ccccc1 | ? | 2.5µM*
17 | N#CCC(=O)N/N=C\c1ccc(OC/C=C/c2ccccc2)cc1 | 3% | 5µM*
18 | N#CCC(=O)N/N=C/c1ccc(OCc2ccccc2)cc1 | 8% | 7.9µM*
19 | Cc1cc(=O)n2nc(N3CCCC3C(=O)Nc3cccc(Cl)c3C)sc2n1 (stereo unspecified) | . | 6%
20 | COc1ccc(NC(=O)CCNS(=O)(=O)c2ccc3c(c2)CCN3C(=O)C2CC2)cc1Cl | . | -1%
21 | CC(Oc1ccccc1)C(=O)NC1=NCCS1 (stereo unspecified) | 7% | ?
22 | COc1cc(C(CC(=O)Nc2ccc(F)cc2F)N2Cc3ccccc3C2=O)cc(OC)c1OC (stereo unspecified) | . | -33%
23 | CCn1cc([N+](=O)[O-])c(C(=O)Nc2ccc3c(c2)OCCO3)n1 | 20% | 5µM*
24 | O=C(CS(=O)(=O)c1cccc2nsnc12)NCc1ccccc1 | . | 4%

no. | miR-21 reporter | Anesthetic bind
8 | 3% | 2%
9 | -57% | 4%
10 | -13% | -1%
11 | -47% | ?
12 | -75% | 63%
13 | . | .
14 | . | .
15 | -2% | -1%
16 | -12% | -12%
17 | -41% | ?
18 | -33% | -13%
19 | -5% | -13%
20 | 8% | -19%
21 | -42% | -4%
22 | 1% | -16%
23 | -34% | -19%
24 | -2% | -3%

Continuation.
no. | molecule | p53 reactivation | BRCA1 expr up
25 | COc1ccc(OCCC(=O)N2CCCCC2)cc1 | 27% | 11µM*
26 | O=C(Oc1ccc(-c2ccccc2)cc1)N1CCCCC1 | . | 7.1µM*
27 | O=C(Oc1ccccc1)N1CCCCC1 | . | 8%
28 | O=C(COc1ccc(-c2ccccc2)cc1)N1CCCC1 | -3% | 13µM*
29 | C[C@@H](c1ccccc1)N1C[C@@H](COCc2ccccc2)Oc2cc(N3CCC[C@H]3CO)ccc2S1(=O)=O | . | -45%
30 | CSc1nnc(NC(=O)c2cc(=O)c3cc(C)c(C)cc3o2)s1 | . | .
31 | COc1ccc(-n2c(=O)c3c4c(sc3n(Cc3c(F)cccc3Cl)c2=O)CN(C(C)=O)CC4)cc1OC | . | .
32 | CCCC(CCC)C(=O)Nc1cccc(-c2cn3cccnc3n2)c1 | . | .
33 | O=C(Nc1ccc(F)c(Cl)c1)c1cc(C2CCCN(C(=O)C3CC3)C2)on1 (stereo unspecified) | . | 2.8µM*
34 | CCCc1cc(C(=O)Nc2cccc(Cl)c2)no1 | 6% | ?
35 | CCCc1cc(C(=O)Nc2ccc(F)c(Cl)c2)no1 | 25% | 11µM*
36 | Cc1ccc(-c2nn(-c3ccccc3)cc2C=C2C(=O)CC(C)(C)CC2=O)cc1 | -3% | 6.3µM*

no. | miR-21 reporter | Anesthetic bind
25 | -38% | -1%
26 | -36% | -22%
27 | . | .
28 | 1% | -11%
29 | . | .
30 | 1% | -12%
31 | 1% | 1%
32 | -5% | 33%
33 | . | .
34 | -32% | -19%
35 | -21% | -9%
36 | -31% | -4%

(further entries)
no. | molecule | p53 reactivation | BRCA1 expr up
37 | COc1cccc(C=O)c1OC(=O)N1CCOCC1 | 7% | -18%
38 | O=C(CSCCO)Nc1ccc(C2CCCCC2)cc1 | 12% | 63%
39 | CCCCn1cnc2c(cnn2-c2ccc(Cl)cc2)c1=O | ? | 11µM*
40 | CCCCn1cnc2c(cnn2-c2ccc(F)cc2)c1=O | ? | ?
41 | Cc1ccnc(SCC(=O)c2cccs2)n1 | 14% | 2.5µM*
42 | CC(OC(=O)/C=C/c1ccco1)C(=O)NC1CCCCC1 (stereo unspecified) | . | -2%
43 | O=C(Nc1ccncc1)Nc1ccc(F)cc1F | 23% | 38%
44 | O=C(Nc1ccc(F)cc1F)Nc1ccc(F)cc1F | 2% | 10µM*
45 | COCc1cc(C)nc2sc(C(=O)Nc3cccc(OC)c3)c(N)c12 | -4% | 2.5µM*
46 | Cc1cc(C)c2c(N)c(C(=O)NNC(=O)c3ccccc3)sc2n1 | 4% | 8.9µM*
47 | Cc1cc(C)c2c(N)c(C(=O)NN)sc2n1 | 3% | 29%
48 | Cc1cccc(S(=O)(=O)c2cn(Cc3ccccc3)c3cc(N4CCCCC4)c(F)cc3c2=O)c1 | . | .

no. | miR-21 reporter | Anesthetic bind
37 | -3% | 1%
38 | -39% | 7.1µM*
39 | -16% | 5%
40 | -28% | -13%
41 | -57% | -17%
42 | . | .
43 | -15% | -7%
44 | -30% | -4%
45 | -75% | -4%
46 | -54% | 149%
47 | -38% | -8%
48 | 1% | -14%

The listing continues:
no. | molecule | p53 reactivation | BRCA1 expr up
49 | Cc1cc(C)c(C)c(S(=O)(=O)N[C@@H](C)C(=O)OCc2cc(=O)n3cc(Br)ccc3n2)c1C | 15% | 19%
50 | CN(C)c1ccc(/C=C/c2cc[n+](C)c3ccc4ccccc4c23)cc1 | . | -2%
51 | CCc1nn(Cc2ccc(Cl)cc2)c(=O)c2cc3cc(C)ccc3n12 | . | 0%
52 | CCN(CC)c1ccc(/C=N/N2CCOCC2)cc1 | . | 3.2µM*
53 | COCc1nc2oc3ccc(C)cc3c(=O)c2cc1C(=O)OC | 2% | 3.2µM*
54 | CCc1nc2oc3ccccc3c(=O)c2cc1C(=O)OC | ? | 3.2µM*
55 | COCc1nc2oc3ccc(F)cc3c(=O)c2cc1C(=O)OC | 6% | 4µM*
56 | CCOC(=O)c1ccc(NS(=O)(=O)c2cc3c(cc2C)n(C)c(=O)c(=O)n3C)cc1 | . | .
57 | O=C(NCC1CCCCC1)c1cc(S(=O)(=O)N2CCOCC2)ccc1F | -5% | 3%
58 | C=C1NN(CC#N)C(=O)N1c1ccc(OCc2ccccc2)cc1 | . | 10µM*
59 | Cc1cccc(C=NOCCc2ccccc2)n1 | . | 10µM*

no. | miR-21 reporter | Anesthetic bind
49 | -1% | ?
50 | . | .
51 | -1% | 0%
52 | -36% | -6%
53 | -41% | 6%
54 | -30% | 6%
55 | -21% | 1%
56 | -3% | -2%
57 | . | .
58 | . | .
59 | . | .

Screens as filed in PubChem.
